These results are taken from PubChem BioAssay AID2806 (Sanford-Burnham Center for Chemical Genomics, 2010).

The list shows a part of the results, in another mix than the full data. The source made the active and inactive calls.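 How the source made its calls: active means inhibition of at least 40% at 10 µM in the primary screen; inactive means the rest.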

As a reminder, the inhibition is the relative decrease from the control value, in per cent.

The test concerns intestinal alkaline phosphatase [Mus musculus]. Kind of test: mouse intestinal phosphatase enzyme inhibition – biochemical, luminescence, uHTS, primary screen (AID 2806).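 Further: plate controls were DMSO with enzyme for no effect and no enzyme wells for full effect.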 Particulars: purified mouse IAP, CDP-Star luminescence, 30 min; at 10 µM; active compounds read high.
As to `N#Cc1ccc(C(=O)NCC2(N3CCCCC3)CCCCC2)cc1`, the inhibition is inactive: 0.8%.

On to `CC(C)(C)OC(=O)N1CCC(N(C(=O)c2ccccc2)c2ccc(Cl)cc2)CC1`, for which the inhibition was inactive: -1.6%.

Turning to `CN(C)C1(CNC(=O)c2cccc(C#N)c2)CCCCC1`, the inhibition is inactive: -2.6%.

Turning to `CCCN1CCC(Nc2cc(OC)cc(OC)c2)CC1`, the inhibition was inactive: 3.4%.

Turning to `c1ccc(CN2CCC(Nc3ccccc3)CC2)cc1`, the inhibition was inactive: 5.8%.

Turning to `COc1cc(C(=O)NCC2(N3CCOCC3)CCCCC2)cc(OC)c1C`, the inhibition is inactive: -10.6%.

On to `O=C(NCC1(N2CCOCC2)CCCCC1)c1cc(Br)ccc1Cl`, for which the inhibition is inactive: -10.1%.

As for `COc1ccc(C(=O)NCC2(N3CCOCC3)CCCCC2)cc1OC`, the inhibition is inactive: -9.7%.

Regarding `CCOC(=O)N1CCC(Nc2ccc(C)cc2)CC1`, the inhibition is inactive: 1.7%.

For the molecule `N/C(=N\O)c1c(N)no[n+]1[O-]`, the inhibition is inactive: -4.6%.

Regarding `O=C(OC1CN2CCC1CC2)C1c2ccccc2C=Cc2ccccc21` (configuration not stated), the inhibition was inactive: 1.7%.

For the molecule `CCc1cc(C(=O)NCC2(N3CCCCC3)CCCCC2)sc1C`, the inhibition is inactive: 0.3%.

Turning to `CN1CCC(Nc2ccc(F)c(Cl)c2)CC1`, the inhibition is inactive: -5.4%.

For `CCOc1ncccc1C(=O)NCC1(N2CCOCC2)CCCCC1`, the inhibition is inactive: -3.5%.

For `O=C(O)C1(Nc2ccccc2)CCN(Cc2ccccc2)CC1`, the inhibition is inactive: 9%.

For `CC(C)(C)OC(=O)N1CCC(Nc2ccccc2)CC1`, the inhibition is inactive: -0.7%.

Regarding `CCCOc1ccc(C(=O)NCC2(N(C)C)CCCCC2)cc1`, the inhibition is inactive: -7.3%.

For the molecule `COc1cc(OC)cc(C(=O)NCC2(N3CCOCC3)CCCCC2)c1`, the inhibition was inactive: 5.9%.

Consider `COc1cccc(C(=O)N(c2cc(C)cc(C)c2)C2CCN(C(=O)OC(C)(C)C)CC2)c1`, for which the inhibition was inactive: 1.3%.

Turning to `CCC(CO)(C(=O)OC1CN2CCC1CC2)c1ccccc1` (configuration not stated), the inhibition was inactive: -4.5%.

Turning to `CN1CCC(Nc2ccc(Cl)cc2)CC1`, the inhibition was inactive: -5.4%.

Regarding `CCCOc1ccc(C)cc1CN(CCCl)CCCl`, the inhibition was inactive: 3%.

Turning to `COc1cc(OC)cc(C(=O)NCC2(N3CCCCC3)CCCCC2)c1`, the inhibition is inactive: -7.8%.

Take `Fc1ccccc1NC1CCN(Cc2ccccc2)CC1`: the inhibition is inactive: -3.3%.

Take `Cc1ccc(C(=O)NCC2(N3CCCCC3)CCCCC2)o1`: the inhibition was inactive: 8.3%.

Take `CCN1CCC(Nc2cccc(F)c2)CC1`: the inhibition is inactive: 12.5%.

Take `CN(C)c1ccc(C(=O)NCC2(N3CCCCC3)CCCCC2)cc1`: the inhibition is inactive: -0.3%.

On to `O=C(NCC1(N2CCCCC2)CCCCC1)c1ccco1`, for which the inhibition is inactive: -3.6%.

With `CCOc1ccc(C)cc1CN(CCCl)CCCl`, the inhibition is inactive: -10.3%.

Take `COc1ccc(NC2CCN(CCc3ccccc3)CC2)c(OC)c1`: the inhibition is inactive: -5%.

Regarding `CCOC(=O)N1CCC(Nc2ccc(F)cc2)CC1`, the inhibition was inactive: -4.4%.

For `O=C(NCC1(N2CCCCC2)CCCCC1)c1ccc(F)cc1`, the inhibition was inactive: -0.6%.

For `CCCCOc1ccc(C(=O)NCC2(N3CCOCC3)CCCCC2)cc1`, the inhibition is inactive: -4%.

`Cc1ccc(OCC(C)C)c(CN(CCCl)CCCl)c1`: the inhibition is inactive: 0.8%.

With `CCOC(=O)N1CCC(Nc2cccc(C)c2)CC1`, the inhibition is inactive: -9.7%.

As to `CC(C)(C)OC(=O)N1CCC(N(C(=O)c2ccccc2)c2ccc(F)cc2)CC1`, the inhibition was inactive: -3.1%.

`COc1ccc(C(=O)NCC2(N3CCCCC3)CCCCC2)c(OC)c1OC`: the inhibition was inactive: -9.3%.

Consider `COc1ccc(C(=O)NCC2(N3CCCCC3)CCCCC2)cc1`, for which the inhibition is inactive: 2.2%.

In the case of `O=C(NCC1(N2CCCCC2)CCCCC1)c1cccs1`, the inhibition was inactive: 10.9%.

For `O=C(NCC1(N2CCCCC2)CCCCC1)c1ccc(=O)[nH]c1`, the inhibition is inactive: 4.6%.

With `CSc1ccccc1C(=O)NCC1(N2CCCCC2)CCCCC1`, the inhibition was inactive: -0.9%.

`Cc1cc(C)cc(N(C(=O)c2ccccc2)C2CCN(C(=O)OC(C)(C)C)CC2)c1`: the inhibition was inactive: -5%.

In the case of `O=C(NCC1(N2CCCCC2)CCCCC1)c1ccc(Cl)nc1`, the inhibition was inactive: -12.3%.

`O=C(NCC1(N2CCOCC2)CCCCC1)c1cc2ccccc2o1`: the inhibition is inactive: 7.7%.

On to `COc1ccc(Cl)cc1C(=O)NCC1(N2CCOCC2)CCCCC1`, for which the inhibition is inactive: 4.6%.

On to `O=C(OC1CN2CCC1CC2)C1c2ccccc2Oc2ccccc21` (configuration not stated), for which the inhibition is inactive: 7.7%.

As for `N#CC1(Nc2ccccc2)CCN(Cc2ccccc2)CC1`, the inhibition was inactive: -2.5%.

On to `O=C(NCC1(N2CCCCC2)CCCCC1)c1ccc(Cl)s1`, for which the inhibition is inactive: -0.8%.

As to `CCOC(=O)N1CCC(Nc2ccc(OC)cc2)CC1`, the inhibition was inactive: -12.4%.

With `CC(C)c1ccc(NC2CCN(C(=O)OC(C)(C)C)CC2)cc1`, the inhibition is inactive: 0.4%.

As for `CN(C)c1cccc(C(=O)NCC2(N3CCCCC3)CCCCC2)c1`, the inhibition was inactive: -10.2%.

For the molecule `COc1ccc(CN(CCCl)CCCl)cc1Cl`, the inhibition was inactive: 3.9%.

On to `O=C(NCC1(N2CCOCC2)CCCCC1)c1cc(F)c(F)cc1Cl`, for which the inhibition is inactive: 0.7%.

With `COc1cc(OC)c(C(=O)NCC2(N(C)C)CCCCC2)cc1OC`, the inhibition is inactive: -0.9%.

On to `O=C(NCC1(N2CCCCC2)CCCCC1)c1cncc(Br)c1`, for which the inhibition was inactive: 6.4%.

In the case of `CN1CCC(Nc2cccc(F)c2)CC1`, the inhibition is inactive: -0.2%.

In the case of `O=C(NCC1(N2CCCCC2)CCCCC1)c1ccc(OC(F)F)cc1`, the inhibition was inactive: 2.5%.

Consider `N#CC1(Nc2ccccc2)CCN(CCc2ccccc2)CC1`, for which the inhibition was inactive: 3.7%.

For `CCN1CCC(Nc2ccc(Cl)cc2)CC1`, the inhibition is inactive: 1.1%.

Consider `CSc1ccc(C(=O)NCC2(N3CCOCC3)CCCCC2)cc1`, for which the inhibition is inactive: -7.1%.

Regarding `O=C(NCC1(N2CCCCC2)CCCCC1)c1cccc([N+](=O)[O-])c1`, the inhibition was inactive: 2.2%.

Take `O=C(NCC1(N2CCCCC2)CCCCC1)c1cccc(C(F)(F)F)c1`: the inhibition is inactive: -2.7%.

Consider `COc1cc(C(=O)NCC2(N3CCCCC3)CCCCC2)ccc1OC(F)F`, for which the inhibition is inactive: -0.2%.

As for `O=C(NCC1(N2CCOCC2)CCCCC1)c1cc(=O)[nH]c2ccccc12`, the inhibition is inactive: -8.5%.

Regarding `CN1CCN(CCOC(=O)C(O)(c2ccccc2)c2ccccc2)CC1`, the inhibition is inactive: -8.4%.

With `CC(C)c1ccc(C(=O)NCC2(N3CCOCC3)CCCCC2)cc1`, the inhibition was inactive: -2.4%.

In the case of `COc1ccc(NC2CCN(C(=O)OC(C)(C)C)CC2)cc1`, the inhibition was inactive: 4.6%.
